## Ab-14 heavy chain CDR variants: yeast mating affinities

From the AlphaSeq antibody data of Li et al. 2023 (doi:10.1038/s41467-023-39022-2), copy in the FLAb collection.

Binding partner: SARS-CoV-2 spike HR2 peptide, sequence PDVDLGDISGINAS.

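The starting antibody came from a phage panning campaign against this peptide. These sequences belong to a second round, designed from the earlier measurements on random variants of the parent. Their group label is 14H_GP_Gibbs (GP: Gaussian process model; Gibbs: Gibbs sampling; a sequence that several methods proposed may carry one label only). In AlphaSeq, yeast of one mating type display the scFv and yeast of the other type display the target. After mating in shaken culture at 30 °C for 16 h, diploids were selected and their barcode pairs sequenced. A regression on co-assayed BCL2-family reference pairs converts the normalised counts of each replicate to an apparent Kd. Each pool was mated in six replicate cultures.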

Each scFv is VH, three GGGGS repeats, VL, as in the parent Ab-14, and differs from it in the CDRs of the heavy chain only.
VH: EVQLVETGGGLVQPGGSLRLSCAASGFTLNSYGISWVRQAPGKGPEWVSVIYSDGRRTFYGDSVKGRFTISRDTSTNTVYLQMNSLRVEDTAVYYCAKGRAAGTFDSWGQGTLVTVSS
VL: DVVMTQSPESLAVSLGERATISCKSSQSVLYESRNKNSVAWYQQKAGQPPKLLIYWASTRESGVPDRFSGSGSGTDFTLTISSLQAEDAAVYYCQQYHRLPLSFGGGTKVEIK

Changes read parent residue, position, new residue, counted from the first residue of the VH shown.
The read-out is the apparent dissociation constant on a log10 scale (nM): the lower, the stronger.
Where no diploid with the target was found in that replicate, the entry reads "ND": below detection, most likely a poor binder, though not proof of it.
Three control strains display no target. For all heavy chain designs, 1% of the pairings with them gave a signal, with a median of 2.08 and one signal in twenty below 0.84, so weak values seen in few replicates may be background. The control count says in how many pairings with the empty strains this scFv gave a signal, with their mean in brackets.
The authors averaged sequences with at least three values out of six and counted those with two or fewer as poor binders.
A sequence measured in both rounds can read differently, since the two assays cover different ranges.
The parent sequence was in this pool as ten entries: three were never detected, three once, and four in most replicates, with averages from 0.34 to 2.37.

| changes | log10 Kd (nM) by replicate | empty controls |
|---|---|---|
| T28D+G61S+R100K+A101T+S107A | ND / -0.12 / -0.56 / -0.32 / -0.45 / 1.50 | 0 of 18 |
| R56Q+S63D+A101T | 0.58 / 0.63 / 1.87 / 0.98 / 0.61 / 1.28 | 0 of 18 |
| T28E+G61S+R100Q+A101V+S107T | 0.36 / 0.48 / 0.44 / 0.52 / 0.77 / 0.17 | 0 of 18 |
| T28E+T58S+A101Q | ND / 0.74 / 1.54 / 1.79 / ND / 1.54 | 0 of 18 |
| T28S+G61A+R100Q+A101T+S107A | -0.16 / -0.13 / -0.40 / 0.12 / 0.25 / 0.26 | 1 of 18 (3.66) |
| T28S+S31D+S63T+A101T+S107E | ND / ND / ND / ND / ND / ND | 0 of 18 |
| N30E+G61A+S63P+S107K | 2.13 / 1.32 / 2.38 / 1.98 / ND / 1.82 | 0 of 18 |
| T28E+R56K+A101M | 0.78 / 0.81 / 1.07 / 2.03 / 0.82 / 1.30 | 0 of 18 |
| T28N+R100M+A101N | ND / 1.02 / ND / 0.47 / ND / 0.49 | 0 of 18 |
| T28D+G61E+R100Q+A101T | 0.59 / 0.31 / 0.49 / 0.44 / 0.27 / 0.72 | 1 of 18 (3.39) |
| G26M+R100H+A101V+S107T | 2.82 / 2.12 / 2.01 / 1.82 / 3.15 / 2.60 | 0 of 18 |
| T28S+S31E+G61D+S63K+R100K | 0.73 / 0.27 / -0.01 / 0.30 / 0.30 / 0.59 | 1 of 18 (2.24) |
| F27K+T28S+S53A+R100K | ND / 1.46 / ND / 1.90 / ND / ND | 2 of 18 (1.12) |
| T28E+G61A+S63M+R100K+A101T | 0.85 / 2.49 / 0.71 / 1.56 / 0.92 / 1.47 | 0 of 18 |
| T28D+S63Q+R100Q+A101T+S107A | 0.17 / -0.28 / 0.07 / -0.09 / -0.15 / 0.40 | 0 of 18 |
| S63D+R100N+A101V+S107K | 0.55 / 0.18 / 0.67 / 1.91 / 1.56 / 1.39 | 0 of 18 |
| G26K+T28S+G61C+A101T | ND / ND / 1.54 / 1.64 / 1.95 / ND | 0 of 18 |
| T28S+S31N+G61C+S63A+A101T | 1.66 / 3.76 / 2.14 / 1.83 / 2.80 / 2.11 | 0 of 18 |
| T28D+G61A+S63H+R100E | 0.90 / 0.67 / 0.58 / 0.03 / 0.30 / 0.71 | 0 of 18 |
| G26M+T28E+S53A+R100E+S107F | ND / 2.73 / 3.15 / 1.99 / 3.95 / 3.21 | 0 of 18 |
| T28D+S63A+A101E+S107T | -0.17 / -0.26 / -0.06 / -0.20 / -0.25 / -0.04 | 0 of 18 |
| T28D+S31M+R100E+S107E | 0.42 / 0.56 / 0.52 / 0.99 / 1.15 / 1.24 | 1 of 18 (2.15) |
| T28E+S63D+R100K+A101E | -0.27 / 0.46 / 0.89 / ND / 0.01 / 1.26 | 0 of 18 |
| T28S+N30E+S31K+A101T | 0.53 / -0.09 / 0.09 / -0.49 / -0.01 / -0.25 | 1 of 18 (0.84) |
| R56K+G61S+S63N+R100Q | 0.15 / 0.26 / 0.43 / -0.03 / 0.25 / 0.45 | 1 of 18 (1.95) |
| T28E+S63Q+A101T+S107L | 0.85 / 1.16 / 0.98 / 0.97 / 0.83 / 1.07 | 0 of 18 |
| G26K+R56M+G61S+A101T | ND / ND / ND / ND / ND / ND | 0 of 18 |
| T28D+G61K+R100N+A101E | -0.10 / -0.46 / 0.22 / -0.50 / 0.14 / -0.13 | 0 of 18 |
| T28H+G61H+R100K+A101V | ND / 0.59 / 2.14 / 2.15 / 2.15 / 0.89 | 0 of 18 |
| T28Q+S31T+R56M+A101T | 2.21 / 1.93 / 1.66 / 1.87 / 2.12 / 1.75 | 0 of 18 |
| T28H+G61V+R100K+A101L+S107T | ND / 2.05 / ND / 2.03 / ND / 2.76 | 0 of 18 |
| G61A+S63R+R100K+A101V+S107T | ND / 1.24 / ND / 1.56 / 1.90 / 1.78 | 0 of 18 |
| T28D+R56K+G61K+A101Q | 1.15 / 1.19 / 0.41 / 0.19 / 1.04 / 0.63 | 0 of 18 |
| T28S+S31D+R100K+A101E | 1.43 / 1.72 / 1.69 / 2.02 / 0.67 / 1.72 | 0 of 18 |
| T28D+R56K+G61I+R100K+S107V | 0.56 / 0.32 / 0.04 / 0.05 / 0.14 / 0.37 | 0 of 18 |
| T28W+S31D+G61Q+A101T | 0.99 / 1.27 / 1.42 / 0.97 / 1.46 / 1.19 | 0 of 18 |
| R56K+R100S+S107L | 0.21 / 0.31 / 0.55 / 0.06 / 0.14 / 0.12 | 0 of 18 |
| R56K+S63N+R100Q+S107L | ND / ND / 1.57 / 1.37 / ND / 1.25 | 0 of 18 |
| T28E+R56K+G61T+A101T | 0.27 / 0.45 / -0.28 / -0.89 / -0.29 / -0.41 | 0 of 18 |
| G26M+T28N+A101N | ND / ND / 3.22 / ND / ND / ND | 0 of 18 |
| T28H+G61I+R100D | 2.27 / 0.79 / 1.48 / 1.22 / 0.18 / 2.60 | 0 of 18 |
| T28V+S31E+R56K+A101T | ND / ND / ND / ND / ND / ND | 0 of 18 |
| T28S+G61A+A101S+S107K | 1.21 / 1.50 / 1.15 / 1.96 / 1.21 / 1.95 | 1 of 18 (1.72) |
| T28E+S31K+R100Q+S107T | 1.09 / 1.51 / 0.87 / 1.29 / 1.27 / 1.48 | 1 of 18 (2.63) |
| T28D+S63N+A101S | 2.10 / 0.80 / 0.99 / 0.73 / ND / ND | 0 of 18 |
| T28H+G61Q+R100Q+A101T+S107R | ND / ND / ND / ND / ND / ND | 0 of 18 |
| T28S+S31E+R100W+S107T | 1.32 / 1.21 / 0.47 / 0.84 / 1.91 / 0.77 | 0 of 18 |
| T28D+S63K+R100Q | 0.86 / 0.26 / 0.64 / 0.06 / 0.29 / 0.59 | 1 of 18 (1.74) |
| T28E+S31E+R56M+G61V+A101Q | 0.12 / 0.35 / 1.12 / 0.04 / 0.79 / 0.38 | 0 of 18 |
| T28Q+S31D+G61A+R100N | 1.32 / ND / ND / 1.76 / 1.75 / ND | 1 of 18 (1.61) |
| T28D+G61R+A101E | 0.08 / -0.11 / -0.21 / -0.33 / -0.11 / -0.29 | 1 of 18 (1.57) |

For reference, 8 entries of the list once more:

| changes | log10 Kd (nM) by replicate | empty controls |
|---|---|---|
| R56K+S63N+R100Q+S107L | ND / ND / 1.57 / 1.37 / ND / 1.25 | 0 of 18 |
| T28H+G61H+R100K+A101V | ND / 0.59 / 2.14 / 2.15 / 2.15 / 0.89 | 0 of 18 |
| S63D+R100N+A101V+S107K | 0.55 / 0.18 / 0.67 / 1.91 / 1.56 / 1.39 | 0 of 18 |
| T28E+S31E+R56M+G61V+A101Q | 0.12 / 0.35 / 1.12 / 0.04 / 0.79 / 0.38 | 0 of 18 |
| G26M+T28E+S53A+R100E+S107F | ND / 2.73 / 3.15 / 1.99 / 3.95 / 3.21 | 0 of 18 |
| F27K+T28S+S53A+R100K | ND / 1.46 / ND / 1.90 / ND / ND | 2 of 18 (1.12) |
| T28D+R56K+G61I+R100K+S107V | 0.56 / 0.32 / 0.04 / 0.05 / 0.14 / 0.37 | 0 of 18 |
| G26K+T28S+G61C+A101T | ND / ND / 1.54 / 1.64 / 1.95 / ND | 0 of 18 |